## Yeast mating assay B: variants of the scFv Ab-14

Reference: Li et al. 2023, doi:10.1038/s41467-023-39022-2. File: FLAb, binding data.

Target peptide (SARS-CoV-2 spike, HR2 region): PDVDLGDISGINAS

Parent: Ab-14, a human scFv built as VH, three GGGGS repeats, VL. Only the CDRs of the heavy chain vary.
VH: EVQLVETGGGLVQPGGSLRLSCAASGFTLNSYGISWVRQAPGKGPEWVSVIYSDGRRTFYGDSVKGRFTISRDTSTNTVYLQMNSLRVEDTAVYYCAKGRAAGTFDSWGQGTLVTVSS
VL: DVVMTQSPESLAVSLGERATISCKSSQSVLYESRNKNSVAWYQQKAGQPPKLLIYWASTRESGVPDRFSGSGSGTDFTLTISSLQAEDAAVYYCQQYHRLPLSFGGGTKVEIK

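The parent was found by panning a naive human phage display library on the peptide. Designed CDR sequences, proposed from the first random library and measured here. Group labels follow the data file (En: ensemble of fine-tuned language models; HC: hill climbing; Gen: genetic algorithm; Gibbs: Gibbs sampling; a sequence that several methods proposed may carry one label only). In AlphaSeq, yeast of one mating type display the scFv and yeast of the other type display the target. Binding brings cells together so that they mate, and sequencing counts the barcode pairs among the diploids. Each replicate has its own calibration line, from reference interactions of the BCL2 family. Mating was done six times.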

Each variant is given by its three heavy chain CDRs, as the data file delimits them; those of the parent are GFTLNSYGIS, VIYSDGRRTFYGDSVK, GRAAGTFDS. This list holds designs with more than six substitutions. The Kd shown is the geometric mean over detected replicates; a lower Kd is a better binder. Where no diploid with the target was found in any replicate, the entry reads "nd": below detection, most likely a poor binder, though not proof of it. The range of this assay differs from that of the first round, and the authors advise against merging the two. Of ten entries with the parent sequence, four were seen in most replicates (averages 2.2 nM to 240 nM), three in one and three in none, so single entries are noisy. In the paper, a design with two or fewer of six values counts as a poor binder. Nonspecific signal, from three strains lacking the peptide, appeared in 1% of pairings of all heavy chain designs, centred on 120 nM (5% of these signals below 7.0 nM); values are not corrected for it. Also given: how often the same scFv was detected with the empty control strains.

The variant GFDLDEYGIS / VIYADGQRTAYADSVK / GNQAGTFDL [En_Gen] gave 230 pM (6 of 6 replicates; controls 0 of 18). The variant GFDLEEFGIS / VIYADGMRTYASDAVK / GTFSGLVSV [En_Gibbs] showed 16 nM (1 of 6 replicates; controls 1 of 18). The variant GFDLNEYGIS / VIYADGSRTYYADSVK / GEVAGSFDQ [En_HC] showed 430 pM (6 of 6 replicates; controls 0 of 18). The variant GFDLNEYGIS / VIYADGRRTAYADSVK / GTAAGTFDQ [En_HC] showed 230 pM (6 of 6 replicates; controls 0 of 18). The variant GFDLNEYGIS / VIYADGMRTAYADDVK / GANAGTFDM [En_Gen] gave 410 pM (6 of 6 replicates; controls 0 of 18). With GFKLDEYGIS / VIYADGHRVAYSNQVK / GDNMGNMVE [En_Gibbs] the result was nd (0 of 6 replicates; controls 0 of 18). The variant GFDLDEYGIS / VIYADGRRTYYQDSVK / GQNAGTFDQ [En_HC] showed 530 pM (6 of 6 replicates; controls 0 of 18). With GFDLNEYGIS / VIYADGQRTAYADSVK / GNTAGTFDV [En_Gen] the result was 490 pM (6 of 6 replicates; controls 0 of 18). With GFDLNEYGIS / VIYADGIRTAYADDVK / GNVAGTFDI [En_Gen] the result was 530 pM (6 of 6 replicates; controls 0 of 18).

The variant GFDLNEYGIS / VIYADGRRTAYTDSVK / GENAGTFDV [En_Gen] showed 870 pM (5 of 6 replicates; controls 0 of 18). With GFDLDEYGIS / VIYADGVRTAYSDSVK / GNVAGTFDL [En_Gen] the result was 410 pM (6 of 6 replicates; controls 0 of 18). The variant GFDLNEYGIS / VIYADGMRTAYADSVK / GEVAGTFDT [En_Gen] gave 670 pM (6 of 6 replicates; controls 0 of 18). For GFDLEDYGIS / VIYADGQRTAYADSVK / GNVAGTFDT [En_Gen], the assay gave 680 pM (6 of 6 replicates; controls 0 of 18). For GFDLDEYGIS / VIYADGKRTYYADSVK / GENAGTFDI [En_Gen], the assay gave 70 pM (6 of 6 replicates; controls 0 of 18). The variant GFGLNEYGIS / VIYADGVRTAYLQNVK / GINSGFDQT [En_Gibbs] showed nd (0 of 6 replicates; controls 0 of 18). For GFDLDEYGIS / VIYADGSRTAYADDVK / GENAGTFDV [En_Gen], the assay gave 750 pM (6 of 6 replicates; controls 1 of 18). With GFDLDEQGIS / VIYADGVRCSYKDKVK / GAGSGVIDM [En_Gibbs] the result was nd (0 of 6 replicates; controls 0 of 18). The variant GFDLNEYGIS / VIYADGQRTAYSDSVK / GNNAGTFDL [En_Gen] gave 250 pM (5 of 6 replicates; controls 0 of 18).

The variant GFDLEKYGIS / VIYADGYRSAYASNVK / GGEAGTFHF [En_Gibbs] showed nd (0 of 6 replicates; controls 0 of 18). The variant GMNIDEYGIS / VIYADGMRTAYSNAVK / GIVGGDTFS [En_Gibbs] showed nd (0 of 6 replicates; controls 1 of 18). The variant GFDLNEYGIS / VIYADGRRTAYTDSVK / GNQAGTFDQ [En_HC] showed 260 pM (6 of 6 replicates; controls 0 of 18). For GFDINEYGIS / VIYADGRRTAYADSVK / GNAAGTFDV [En_HC], the assay gave 610 pM (6 of 6 replicates; controls 0 of 18). With GFDLNEYGIS / VIYADGTRTFYADSVK / GQLAGTFDI [En_HC] the result was 950 pM (6 of 6 replicates; controls 0 of 18). The variant GDNLEEYGIS / VIYADGFRSHYAEKVK / GQQAGFFIK [En_Gibbs] showed nd (0 of 6 replicates; controls 0 of 18). The variant GFQLDEYGIS / VIYADGRRTFYQDSVK / GEVAGTFDN [En_HC] gave 2.0 nM (5 of 6 replicates; controls 0 of 18). The variant GVNLDEYGIS / VIYADGVRSHYAESVK / GMHGTFGVV [En_Gibbs] showed nd (0 of 6 replicates; controls 0 of 18). The variant GYDIQDYGIS / VIYADGVRTAYHDSVK / GQLAGSFIT [En_Gibbs] showed 8.5 nM (6 of 6 replicates; controls 0 of 18).

The variant GFDLNEYGIS / VIYADGRRTFYADSVK / GQQAGTFDM [En_HC] showed 240 pM (6 of 6 replicates; controls 0 of 18). The variant GFDLEEYGIS / VIYADGQRTAYADSVK / GNQAGTFDV [En_Gen] gave 15 pM (1 of 6 replicates; controls 0 of 18). For GFNLDEYGIS / VIYADGTRTSYQDRVK / GVKSGHDKV [En_Gibbs], the assay gave 4.8 nM (6 of 6 replicates; controls 0 of 18). The variant GFSLNEYGIS / VIYADGFRAVYTDKVK / GVTGGNFSS [En_Gibbs] gave 730 pM (6 of 6 replicates; controls 0 of 18). The variant GFDLDEYGIS / VIYADGSRVAILESVK / GKIAGTLDA [En_Gibbs] showed 1.1 nM (6 of 6 replicates; controls 0 of 18).

4 of these entries, quoted again:

Variant GFDLNEYGIS / VIYADGSRTYYADSVK / GEVAGSFDQ [En_HC] showed 430 pM (6 of 6 replicates; controls 0 of 18).
Variant GFDLNEYGIS / VIYADGRRTAYTDSVK / GNQAGTFDQ [En_HC] showed 260 pM (6 of 6 replicates; controls 0 of 18).
Variant GFDLEDYGIS / VIYADGQRTAYADSVK / GNVAGTFDT [En_Gen] showed 680 pM (6 of 6 replicates; controls 0 of 18).
Variant GFDLNEYGIS / VIYADGRRTAYTDSVK / GENAGTFDV [En_Gen] showed 870 pM (5 of 6 replicates; controls 0 of 18).